Chains of the proteins cited; added tags and fusions are not shown. Residues count along the entry.
UniProt P00533, 25-1210 T790M/L858R limits assumed: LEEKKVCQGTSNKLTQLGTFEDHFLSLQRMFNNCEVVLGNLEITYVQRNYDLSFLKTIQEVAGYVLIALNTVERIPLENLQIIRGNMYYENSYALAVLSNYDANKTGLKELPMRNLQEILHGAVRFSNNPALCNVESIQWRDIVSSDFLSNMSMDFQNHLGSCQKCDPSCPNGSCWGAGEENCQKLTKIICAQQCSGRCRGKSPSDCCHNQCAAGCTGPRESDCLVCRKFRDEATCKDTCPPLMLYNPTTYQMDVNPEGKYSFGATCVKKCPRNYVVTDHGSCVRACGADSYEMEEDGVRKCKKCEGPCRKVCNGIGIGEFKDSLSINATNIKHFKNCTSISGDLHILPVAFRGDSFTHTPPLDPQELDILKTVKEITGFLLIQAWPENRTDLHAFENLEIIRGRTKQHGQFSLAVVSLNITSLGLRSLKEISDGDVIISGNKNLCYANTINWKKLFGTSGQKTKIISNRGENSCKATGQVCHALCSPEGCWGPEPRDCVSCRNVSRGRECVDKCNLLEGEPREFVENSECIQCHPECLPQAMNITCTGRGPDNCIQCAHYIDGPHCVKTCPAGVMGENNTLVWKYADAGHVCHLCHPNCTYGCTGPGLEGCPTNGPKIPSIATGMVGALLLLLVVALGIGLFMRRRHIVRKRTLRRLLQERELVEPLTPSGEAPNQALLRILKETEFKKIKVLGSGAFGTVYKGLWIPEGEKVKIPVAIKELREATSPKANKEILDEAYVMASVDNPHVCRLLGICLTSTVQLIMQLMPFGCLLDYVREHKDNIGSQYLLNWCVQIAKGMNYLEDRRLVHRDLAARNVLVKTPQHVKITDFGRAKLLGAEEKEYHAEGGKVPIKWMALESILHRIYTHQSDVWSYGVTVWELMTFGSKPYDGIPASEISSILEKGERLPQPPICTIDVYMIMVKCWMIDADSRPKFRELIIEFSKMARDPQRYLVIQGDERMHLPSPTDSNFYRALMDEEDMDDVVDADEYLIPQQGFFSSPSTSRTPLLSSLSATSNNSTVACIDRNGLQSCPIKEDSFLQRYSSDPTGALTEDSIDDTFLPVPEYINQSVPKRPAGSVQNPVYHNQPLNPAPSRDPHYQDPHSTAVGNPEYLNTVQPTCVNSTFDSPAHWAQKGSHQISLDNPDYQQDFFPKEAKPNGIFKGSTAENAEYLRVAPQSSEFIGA

According to patent publication US9890152B2 (Genentech, Inc., priority 2012, dated 2018):

These molecules were tested against EGFR T790M L858R (Homo sapiens, UniProt P00533, L858R/T790M) (assay: biochemical). Details: EGFR(T790M/L858R) Ki (μM), 5 μM ATP, 30 min, room temperature; apparent Ki (Morrison) converted by Cheng-Prusoff, Km of ATP 1.3 μM.
Molecule CC(C)n1cnc2cnc(Nc3ccnc(N4CCC(CN(C)C)CC4)n3)cc21 [Example 138, {1-[4-(1-isopropyl-1H-imidazo[4,5-c]pyridin-6-ylamino)pyrimidin-2-yl]piperidin-4-ylmethyl}dimethylamtnonium formate] has a Ki of 1.54 µM. Molecule CC(C)n1cnc2cnc(Nc3ccnc(N4CCC(CCO)CC4)n3)cc21 [Example 139, 2-{1-[4-(1-Isopropyl-1H-imidazo[4,5-c]pyridin-6-ylamino)pyrimidin-2-yl]piperidin-4-yl}ethanol] has a Ki of 0.269 µM. In the case of CN(CCO)c1nccc(Nc2cc3c(ccn3C3CCCC3)cn2)n1 [Example 140, formate salt], the Ki is reported as 0.155 µM. CC(C)n1cnc2cnc(Nc3ccnc(N4CCC5(CCCO5)CC4)n3)cc21 [Example 141, (1-Isopropyl-1H-imidazo[4,5-c]pyridin-6-yl)-[2-(1-oxa-8-azaspiro[4.5]dec-8-yl)pyrimidin-4-yl]amine formate salt] showed a Ki of 0.0205 µM. CC(=O)N1CCN(c2nccc(Nc3cc4c(cn3)ncn4C(C)C)n2)CC1 [Example 142, 1-{4-[4-(l-Isopropyl-1H-imidazo[4,5-c]pyridin-6-ylamino)pyrimidin-2-yl]piperazin-1-yl}ethanone formate salt] showed a Ki of 1.12 µM. Work on CC(C)n1cnc2cnc(Nc3ccnc(N4CCC(C(C)(C)O)CC4)n3)cc21 [Example 143, 2-{1-[4-(1-Isopropyl-1H-imidazo[4,5-c]pyridin-6-ylamino)-pyrimidin-2-yl]-piperidin-4-yl}-propan-2-ol] yielded a Ki of 0.512 µM. In the case of COC1(C)CCN(c2nccc(Nc3cc4c(cn3)ncn4C(C)C)n2)CC1 [Example 144, (1-Isopropyl-1H-imidazo[4,5-c]pyridin-6-yl)-[2-(4-methoxy-4-methylpiperidin-1-yl)pyrimidin-4-yl]amine], the Ki is reported as 0.0326 µM. Molecule CC(C)n1cnc2cnc(Nc3ccnc(N4CC(C#N)C4)n3)cc21 [Example 145, 1-[4-(1-Isopropyl-1H-imidazo[4,5-c]pyridin-6-ylamino)pyrimidin-2-yl]azetidine-3-carbonitrile] has a Ki of 1.07 µM. For CC(C)n1cnc2cnc(Nc3ccnc(N4CC(O)C4)n3)cc21 [Example 146, 1-[4-(1-Isopropyl-1H-imidazo[4,5-c]pyridin-6-ylamino)pyrimidin-2-yl]azetidin-3-ol], the Ki was 0.622 µM. For CC(C)n1cnc2cnc(Nc3ccnc(N[C@@H]4CCOC4)n3)cc21 [Example 147, N^4-(1-Isopropyl-1H-imidazo[4,5-c]pyridin-6-yl)-N^2-(R)-tetrahydrofuran-3-ylpyrimidine-2,4-diamine], the Ki was 1.19 µM. CC(C)n1cnc2cnc(Nc3ccnc(N4CCC(C#N)CC4)n3)cc21 [Example 148, 1-[4-(1-Isopropyl-1H-imidazo[4,5-c]pyridin-6-ylamino)pyrimidin-2-yl]piperidine-4-carbonitrile] was tested, and the Ki was 0.283 µM. For COC1CCN(c2nccc(Nc3cc4c(cn3)ncn4CC(F)(F)F)n2)CC1 [Example 149, [2-(4-Methoxypiperidin-1-yl)-pyrimidin-4-yl]-[1-(2,2,2-trifluoroethyl)-1H-imidazo[4,5-c]pyridin-6-yl]amine formate salt], the Ki was 0.0833 µM. COC1CCN(c2nccc(Nc3cc4c(cn3)ncn4C3CC3)n2)CC1 [Example 150, (1-Cyclopropyl-1H-imidazo[4,5-c]pyridin-6-yl)-[2-(4-methoxypiperidin-1-yl)pyrimidin-4-yl]amine formate salt] showed a Ki of 0.0977 µM. COC1CCN(c2nccc(Nc3cc4c(cn3)ncn4C3CCC3)n2)CC1 [Example 151, (1-Cyclobutyl-1H-imidazo[4,5-c]pyridin-6-yl)-[2-(4-methoxypiperidin-1-yl)pyrimidin-4-yl]amine formate salt] was tested, and the Ki was 0.0412 µM. For COC1CCN(c2nccc(Nc3cc4c(cn3)ncn4C3CCCCC3)n2)CC1 [Example 152, (1-Cyclohexyl-1H-imidazo[4,5-c]pyridin-6-yl)-[2-(4-methoxypiperidin-1-yl)pyrimidin-4-yl]amine], the Ki was 0.0113 µM. CC(C)n1cnc2cnc(Nc3ccnc(N4CCc5[nH]cnc5C4)n3)cc21 [Example 154] showed a Ki of 0.171 µM.

Structures can show the parent of a compound that is named as a salt.
